The chains behind the UniProt entries cited, without tags or fusion partners. Where a name states a change or a piece, a line headed by the entry shows the natural chain unless it says otherwise.
UniProt Q00987: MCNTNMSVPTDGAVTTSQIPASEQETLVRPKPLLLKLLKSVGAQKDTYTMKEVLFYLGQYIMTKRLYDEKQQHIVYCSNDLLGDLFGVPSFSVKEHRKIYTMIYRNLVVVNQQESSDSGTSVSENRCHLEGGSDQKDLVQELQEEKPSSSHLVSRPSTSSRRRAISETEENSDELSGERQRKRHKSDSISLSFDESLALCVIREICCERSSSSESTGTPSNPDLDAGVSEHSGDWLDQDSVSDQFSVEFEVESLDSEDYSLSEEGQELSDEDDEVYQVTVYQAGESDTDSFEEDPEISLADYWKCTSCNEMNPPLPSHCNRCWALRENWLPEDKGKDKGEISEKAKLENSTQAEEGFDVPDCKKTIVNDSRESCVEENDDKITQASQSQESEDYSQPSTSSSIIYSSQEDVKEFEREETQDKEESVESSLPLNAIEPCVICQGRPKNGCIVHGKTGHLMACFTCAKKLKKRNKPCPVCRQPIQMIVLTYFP

According to US11242511B2, “Cytoplasmic protein complex comprising a kinase substrate sensor, cells comprising the complex, and associated detection methods” (VIB VZW, priority 2011, dated 2022):

Molecular target: interaction between p53 and MDM2 (Homo sapiens, UniProt Q00987)
Experiment: Tyk2(C) kinase substrate sensor luciferase reporter assay, p53(N)/MDM2 interaction
Conditions: HEK293-T cells, FIG. 4

Nutlin-3
signal from control transfection with unfused gp130 receptor fragment (pMet7-HA-Tyk2(C)-p53(N)+pMG1, 0-3333 nM): unaffected | signal for the interaction between p53 (N-terminal region) and MDM2 (pMet7-HA-Tyk2(C)-p53(N)+pMG2-MDM2, 0-14-41-123-370-1111-3333 nM, added 24 hours after transfection): dose-dependent decrease
